# Data from patent US7491836B2, “Non-ionic surfactants for poorly soluble molecules” (AstraZeneca AB, priority 2003, dated 2009).
# Tested on: dog blood erythrocyte suspension
# Experiment: Haemolytic activity, static method (erythrocyte suspension incubated with surfactant, haemoglobin analysed)
# Format: cell-based
# Details: for Hemolysis: 40 min at 37° C.
# Protocol: A static method for evaluating the haemolytic activity of compounds was used. In short, dog blood is processed to an erythrocyte suspension, which is then incubated (40 min at 37° C.) with varying concentrations of a surfactant. The incubation is terminated by centrifugation after which the plasma, now containing different amounts of haemoglobin, can be removed and analysed. The results obtained for various MePEG- and PEG mono-12-acyloxy-stearate esters compared with a reference substance (Tween 80), are summarized in tables 3-4.
substance,measurement,setting,value
MePEG1200 12-palmitoyloxy-stearate,Hemolysis,surfactant conc 1.0 mM,0%
same,Hemolysis,surfactant conc 5.0 mM,0%
same,Hemolysis,surfactant conc 10 mM,0%
MePEG1200 12-stearoyloxy-stearate,Hemolysis,surfactant conc 1.0 mM,0%
same,Hemolysis,surfactant conc 5.0 mM,0%
same,Hemolysis,surfactant conc 10 mM,0%
MePEG2000 12-palmitoyloxy-stearate,Hemolysis,surfactant conc 1.0 mM,0%
same,Hemolysis,surfactant conc 5.0 mM,0%
same,Hemolysis,surfactant conc 10 mM,0%
MePEG2000 12-stearoyloxy-stearate,Hemolysis,surfactant conc 1.0 mM,0%
same,Hemolysis,surfactant conc 5.0 mM,0%
same,Hemolysis,surfactant conc 10 mM,0.2%
PEG600 mono-12-propionyloxy-stearate,Hemolysis,surfactant conc 0.6 mM,104%
PEG1500 mono-12-lauroyloxy-stearate,Hemolysis,surfactant conc 1.0 mM,0%
same,Hemolysis,surfactant conc 1.5 mM,0%
same,Hemolysis,surfactant conc 3.0 mM,11%
same,Hemolysis,surfactant conc 5.0 mM,98%
same,concentration causing total haemolysis,text summary of Tables 3-4,5000 µM
PEG1500 mono-12-myristoyloxy-stearate,Hemolysis,surfactant conc 3.1 mM,0%
same,Hemolysis,surfactant conc 6.2 mM,0%
same,Hemolysis,surfactant conc 7.7 mM,0%
same,Hemolysis,surfactant conc 10.8 mM,0%
same,Hemolysis,surfactant conc 12.3 mM,0%
same,Hemolysis,surfactant conc 15.4 mM,0%
PEG1500 mono-12-oleoyloxy-stearate,Hemolysis,surfactant conc 0.8 mM,0%
same,Hemolysis,surfactant conc 1.9 mM,0%
same,Hemolysis,surfactant conc 3.7 mM,0%
same,Hemolysis,surfactant conc 6.0 mM,0%
same,Hemolysis,surfactant conc 8.2 mM,0%
same,Hemolysis,surfactant conc 11.2 mM,0%
PEG1500 mono-12-palmitoyloxy-stearate,Hemolysis,surfactant conc 1.0 mM,0%
same,Hemolysis,surfactant conc 3.0 mM,0%
same,Hemolysis,surfactant conc 5.0 mM,0%
same,Hemolysis,surfactant conc 7.0 mM,0%
same,Hemolysis,surfactant conc 9.9 mM,0%
PEG1500 mono-12-stearoyloxy-stearate,Hemolysis,surfactant conc 1.0 mM,0%
same,Hemolysis,surfactant conc 3.1 mM,0%
same,Hemolysis,surfactant conc 5.1 mM,0%
same,Hemolysis,surfactant conc 7.2 mM,0%
same,Hemolysis,surfactant conc 10.2 mM,0%
